25 molecules from patent publication EP4653424A1, “PYRIDAZINONE PARP INHIBITOR, AND PREPARATION METHOD THEREFOR, AND PHARMACEUTICAL COMPOSITION AND USE THEREOF” (China Pharmaceutical University, priority 2023, dated 2024) can be followed below.

Amino acid sequences for entries named in this document (tags omitted).
UniProt Q7Z3E1, whole entry: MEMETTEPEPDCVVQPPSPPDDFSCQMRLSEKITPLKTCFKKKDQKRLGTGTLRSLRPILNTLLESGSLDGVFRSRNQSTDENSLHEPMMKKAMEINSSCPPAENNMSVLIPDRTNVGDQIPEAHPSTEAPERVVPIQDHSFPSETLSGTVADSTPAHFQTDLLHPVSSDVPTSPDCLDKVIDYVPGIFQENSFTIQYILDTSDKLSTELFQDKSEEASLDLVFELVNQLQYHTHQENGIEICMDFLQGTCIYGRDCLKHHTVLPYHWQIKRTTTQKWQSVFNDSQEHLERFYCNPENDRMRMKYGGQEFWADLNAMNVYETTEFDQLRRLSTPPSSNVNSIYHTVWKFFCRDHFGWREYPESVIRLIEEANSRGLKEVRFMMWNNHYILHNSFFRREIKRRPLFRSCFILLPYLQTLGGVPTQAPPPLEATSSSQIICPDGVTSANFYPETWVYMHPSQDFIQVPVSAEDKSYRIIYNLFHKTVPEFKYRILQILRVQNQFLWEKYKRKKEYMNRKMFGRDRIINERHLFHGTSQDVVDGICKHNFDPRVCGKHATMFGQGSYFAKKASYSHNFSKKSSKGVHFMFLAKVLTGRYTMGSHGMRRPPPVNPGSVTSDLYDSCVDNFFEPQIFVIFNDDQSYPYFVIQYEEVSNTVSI

A word on the IC50: it is the concentration at which inhibition is half-maximal. One may read the efflux ratio as the permeability from basolateral to apical divided by that in the opposite direction, in the common usage.

Data set [1] addresses PARP7 enzyme (Homo sapiens, UniProt Q7Z3E1). Kind of data set: PARP7 Chemiluminescent Assay Kit enzyme inhibition assay. To be noted: for Inhibition at 100 nM: compound at 100 nM. It counts as biochemical. The procedure: Example 60: Inhibitory activity of compounds against PARP7 enzyme
Materials: PARP7 Chemiluminescent Assay Kit, BPS Bioscience; DMSO, Sinopharm, Nivo, PerkinElmer.
Preparation of 10× PBS: 720 mg of KH2PO4, 45 g of NaCl, and 5.311 g of Na2HPO4·12H2O were dissolved in 500 mL of deionized water. The system was adjusted to pH 7.4, sterilized at 121 °C for 30 min, and cooled, and then preserved at 4 °C for later use.
Preparation of 1 × PBS: 10× PBS was diluted 10-fold with deionized water, i.e., 1 part of 10× PBS was diluted with 9 parts of deionized water.
Preparation of wash buffer: 1 × PBS containing 0.05% Tween-20.
Preparation of 1 × PARP buffer: (prepared right before use) 10× PARP buffer was diluted 10-fold with deionized water and placed on ice for later use.
According to the study requirements, the test compound was diluted to the desired concentration with 100% DMSO, and then diluted 10-fold with 1× PARP buffer to give a 10× compound working solution.
• a. 5× histone mixture was thawed on ice the day before the study; • b. 1× histone mixture was prepared by diluting 5× histone mixture into 1× histone mixture with 1× PBS; 25 µL of 1× histone mixture was added to each well of the test plate and incubated overnight at 4 °C; • c. 100 µL of the blocking buffer was taken per well and added to the test plate, and the plate was incubated at 25 °C for 90 min; • d. After the incubation was completed, the liquid in the test plate was discarded, and the plate was washed 3 times; • e. 2.5 µL of compound working solution was taken from each well and added to the test plate according to the experimental layout; a corresponding volume of 1× PARP buffer containing 10% DMSO was added to the positive control wells (Positive control), and a corresponding volume of 1× PARP buffer was added to the blank control wells (Blank); • f. After the enzyme was completely dissolved, the enzyme stock solution was diluted to 6 ng/µL with 1× PARP buffer; • g. The enzyme solution was added to a test well plate at 10 µL/well, and a corresponding volume of 1× PARP buffer was added to the blank control wells, where the enzyme amount was 60 ng/well. Note: this procedure should be performed on ice; • h. Master mixture (12.5 µL of master mixture containing 1.25 µL of 10× PARP buffer, 1.25 µL of Opti-PARP 10× Assay mixture, and 10 µL of water) was added to the test plate at 12.5 µL/well; the test plate was sealed with a film and incubated at 25 °C for 60 min; • i. After the incubation, the liquid in the test plate was discarded, and the plate was washed 3 times; • j. Streptavidin-HRP in the kit was 50-fold diluted with the Blocking buffer, and added to the test plate at 25 µL/well, and the plate was incubated at 25 °C for 30 min; • k. After the incubation, the liquid in the test plate was discarded, and the plate was washed 3 times; • l. ELISA ECL Substrate A and ELISA ECL Substrate B in the kit were mixed in a ratio of 1:1, the mixed solution was added to the test plate at 50 µL/well, luminescence detection was immediately performed using Nivo, and the luminescence value (RLU) was read; • m. Calculation of enzyme inhibition: % Enzyme Activity = (RLU(Sample)−RLU(Blank))/(RLU(Pos.Ctrl)−RLU(Blank)) × 100%; [formula] Enzyme inhibition = 1 - % Enzyme Activity; the IC 50 was calculated using GraphPad Prism 8.

The test system of data set [2] is Caco-2 cell. In words: Caco-2 bidirectional (ABBA) permeability assay. It counts as in vitro ADME. The protocol:
Materials: test compounds I-A-1, I-A-2, and RBN-2397.
• (1) Caco-2 cell plating • 1. 600 µL of cell culture medium and 100 µL of cell culture medium were added to the wells of […], respectively; • 2. Before cell inoculation, Transwell was pre-incubated at 37 °C and 5% CO2 for 1 h; • 3. 100 µL of cell suspension (4 × 10^5 cells/mL) was seeded into the culture medium and cultured at 37 °C, 5% CO2, and 95% relative humidity for 14-21 days; • 4. The cell culture medium was replaced once every other day in the first 7 days, and once every day after day 7; • 5. The transepithelial electrical resistance (TEER) of the monolayer membrane was measured using EVOM3. • (2) ABBA process • 1. The plate was washed twice with pre-heated HBSS (10 mM HEPES, pH 7.4) and then incubated at 37 °C for 30 min. • 2. Test compounds were prepared in 1 mM DMSO and diluted 200-fold to 5 µM with HBSS (10 mM HEPES, pH 7.4) and HBSS (100 µM Lucifer Yellow, 10 mM HEPES, pH 7.4). • 3. Apical to basal direction: 200 µL of 5 µM working solution (100 µM Lucifer Yellow) was added to the apical compartment, and 600 µL of HBSS (10 mM HEPES, pH 7.4) was added to the basal compartment. • 4. Basal to apical direction: 600 µL of 5 µM working solution was added to the basal compartment, and 200 µL of HBSS (100 µM Lucifer Yellow, 10 mM HEPES, pH 7.4) was added to the apical compartment. • 5. 100 µL of 5 µM working solution was transferred to a sample plate containing 400 µL of cold methanol, and IS* was C0. • 6. The cell plate was incubated at 37 °C, 5% CO2, and 95% relative humidity for 2 h. • 7. 5 µL of the working solution was transferred from the apical compartment and the basal compartment to the plate. After 0.5 h of incubation, the 427 nm excitation values and 536 nm emission values were read by the Lucifer Yellow leakage detector. • 8. After 2 h of incubation, 100 µL of the solution was transferred from the apical and basal compartments with IS* to a sample plate containing 400 µL of cold methanol. • 9. The sample plate was centrifuged at 3220 g for 40 min. • 10. 100 µL of the supernatant was transferred to an assay plate containing an appropriate volume of water for LC-MS/MS analysis. • (3) Calculation
The apparent permeability coefficient (Papp, cm/s) and the efflux ratio were calculated using Microsoft Excel. Papp = (VA × Cacceptor × 100)/(Area × Time × Cinitial,donor) [formula] Efflux Ratio = (Papp(B−A))/(Papp(A−B)) [formula] Table 3. Physicochemical properties of test compounds
A general note: Passage across Caco-2 layers is used to estimate intestinal permeability.

A value given as a limit tells only on which side of the number the result lay.

On to `O=C(c1ccccc1)C1CCN(c2cn[nH]c(=O)c2C(F)(F)F)C1` (stereo not shown), for which, in data set [1], the IC50 is less than 100 nM and the “Inhibition at 100 nM” value is “+++ (inhibition at 100 nM ≥ 50%)”.

With `O=c1[nH]ncc(NCCOc2ccccc2)c1C(F)(F)F`, in data set [1], the IC50 was less than 100 nM and the “Inhibition at 100 nM” value is listed as “+++ (inhibition at 100 nM ≥ 50%)”.

Consider `Cc1ccc(C(=O)CCNc2cn[nH]c(=O)c2C(F)(F)F)cc1`, for which, in data set [1], the IC50 was less than 100 nM and the “Inhibition at 100 nM” value is listed as “+++ (inhibition at 100 nM ≥ 50%)”.

Consider `COc1ccc(C(=O)C2CN(c3cn[nH]c(=O)c3C(F)(F)F)C2)cc1`, for which, in data set [1], the 50% inhibitory concentration (IC50) was less than 100 nM and the “Inhibition at 100 nM” value is recorded as “+++ (inhibition at 100 nM ≥ 50%)”.

With `O=c1[nH]ncc(NCC#Cc2ccc(F)cc2)c1C(F)(F)F`, in data set [1], the half-inhibitory concentration (IC50) was in the range of 100 to 500 nM and the “Inhibition at 100 nM” value is reported as “++ (50% > inhibition at 100 nM ≥ 25%)”.

Regarding `O=C(CCNc1cn[nH]c(=O)c1C(F)(F)F)c1csc2ccccc12`, in data set [1], the half-inhibitory concentration (IC50) is less than 100 nM and the “Inhibition at 100 nM” value is “+++ (inhibition at 100 nM ≥ 50%)”.

For `O=c1[nH]ncc(N2CC(C(O)c3cccc(F)c3)C2)c1C(F)(F)F` (stereo not shown), in data set [1], the IC50 is less than 100 nM and the “Inhibition at 100 nM” value was “+++ (inhibition at 100 nM ≥ 50%)”.

On to `CCOc1ccc(C(=O)CCNc2cn[nH]c(=O)c2C(F)(F)F)cc1`, for which, in data set [1], the IC50 is less than 100 nM and the “Inhibition at 100 nM” value is recorded as “+++ (inhibition at 100 nM ≥ 50%)”.

Take `O=C(c1ccc(F)cc1)C1CN(c2cn[nH]c(=O)c2C(F)(F)F)C1`: in data set [1], the IC50 was less than 100 nM and the “Inhibition at 100 nM” value is “+++ (inhibition at 100 nM ≥ 50%)”.

Turning to `O=c1[nH]ncc(N2CC(C(O)c3ccc(F)cc3)C2)c1C(F)(F)F` (stereo not shown), in data set [1], the half-maximal inhibitory concentration (IC50) is less than 100 nM and the “Inhibition at 100 nM” value was “+++ (inhibition at 100 nM ≥ 50%)”.

`O=c1[nH]ncc(NCC#Cc2ncccn2)c1C(F)(F)F`: in data set [1], the IC50 was in the range of 100 to 500 nM and the “Inhibition at 100 nM” value is given as “++ (50% > inhibition at 100 nM ≥ 25%)”.

For the molecule `Cc1ccc(C(=O)C2CN(c3cn[nH]c(=O)c3C(F)(F)F)C2)cc1`, in data set [1], the IC50 is less than 100 nM and the “Inhibition at 100 nM” value was “+++ (inhibition at 100 nM ≥ 50%)”.

On to `O=c1[nH]ncc(N2CC(C(O)c3ccccc3)C2)c1C(F)(F)F` (stereo not shown), for which, in data set [1], the half-maximal inhibitory concentration (IC50) was less than 100 nM and the “Inhibition at 100 nM” value was “+++ (inhibition at 100 nM ≥ 50%)”.

With `O=c1[nH]ncc(N2CC(Nc3ccccc3)C2)c1C(F)(F)F`, in data set [1], the IC50 was less than 100 nM and the “Inhibition at 100 nM” value is “+++ (inhibition at 100 nM ≥ 50%)”.

`O=c1[nH]ncc(NCC#Cc2cccc(F)c2)c1C(F)(F)F`: in data set [1], the concentration for half-maximal inhibition (IC50) was 100 to 500 nM and the “Inhibition at 100 nM” value is given as “++ (50% > inhibition at 100 nM ≥ 25%)”.

In the case of `O=C(CCNc1cn[nH]c(=O)c1C(F)(F)F)c1ccc(F)cc1`, in data set [1], the concentration for half-maximal inhibition (IC50) is less than 100 nM and the “Inhibition at 100 nM” value was “+++ (inhibition at 100 nM ≥ 50%)”.

On to `O=c1[nH]ncc(NCCCc2ccccc2)c1C(F)(F)F`, for which, in data set [1], the IC50 lay within 100 to 500 nM and the “Inhibition at 100 nM” value was “++ (50% > inhibition at 100 nM ≥ 25%)”.

For the molecule `O=c1[nH]ncc(NCC#Cc2cc(F)cc(F)c2)c1C(F)(F)F`, in data set [1], the IC50 fell in the range of 100 to 500 nM and the “Inhibition at 100 nM” value is given as “++ (50% > inhibition at 100 nM ≥ 25%)”.

With `O=c1[nH]ncc(NCC#Cc2ccc3ncccc3c2)c1C(F)(F)F`, in data set [1], the IC50 was less than 100 nM and the “Inhibition at 100 nM” value was “+++ (inhibition at 100 nM ≥ 50%)”.

On to `O=C(c1cccc(F)c1)C1CN(c2cn[nH]c(=O)c2C(F)(F)F)C1`, for which, in data set [1], the IC50 is less than 100 nM and the “Inhibition at 100 nM” value was “+++ (inhibition at 100 nM ≥ 50%)”.

In the case of `O=c1[nH]ncc(NCC#Cc2ccccc2)c1C(F)(F)F`, in data set [2] (Caco-2, summary in words), the efflux ratio result is given as “lower efflux ratio” and the membrane permeability result is reported as “better membrane permeability”. Moreover, in data set [2] (Papp(B-A)/Papp(A-B), Caco-2, 5 µM), the efflux ratio was 0.64. The “PappA→B (1E-6 cm/s)” value in data set [2] (apical to basal, 5 µM, 2 h, Caco-2) is reported as 39.27 1E-6 cm/s. In addition, the “PappB→A (1E-6 cm/s)” value in data set [2] (basal to apical, 5 µM, 2 h, Caco-2) is given as 25.16 1E-6 cm/s. Also, in data set [1], the half-inhibitory concentration (IC50) was less than 100 nM and the “Inhibition at 100 nM” value was “+++ (inhibition at 100 nM ≥ 50%)”.

`O=C(c1ccccc1)C1CN(c2cn[nH]c(=O)c2C(F)(F)F)C1`: in data set [1], the half-inhibitory concentration (IC50) was less than 100 nM and the “Inhibition at 100 nM” value was “+++ (inhibition at 100 nM ≥ 50%)”.

For the molecule `O=C(CCNc1cn[nH]c(=O)c1C(F)(F)F)c1ccc(OCC2CCCC2)cc1`, in data set [1], the IC50 is less than 100 nM and the “Inhibition at 100 nM” value is “+++ (inhibition at 100 nM ≥ 50%)”.

In the case of `O=C(CCNc1cn[nH]c(=O)c1C(F)(F)F)c1ccc(OCC2CCCCC2)cc1`, in data set [1], the IC50 was less than 100 nM and the “Inhibition at 100 nM” value is reported as “+++ (inhibition at 100 nM ≥ 50%)”.

Regarding `Cc1ccc(C#CCNc2cn[nH]c(=O)c2C(F)(F)F)cc1`, in data set [1], the IC50 fell in the range of 100 to 500 nM and the “Inhibition at 100 nM” value was “+++ (inhibition at 100 nM ≥ 50%)”.
